## scFv variants of Ab-14 (light chain) against a SARS-CoV-2 spike peptide

Reference: Engelhart et al. 2022, doi:10.1038/s41597-022-01779-4. File: FLAb, binding data.

Target peptide (SARS-CoV-2 spike, HR2 region): PDVDLGDISGINAS

Parent: Ab-14, a human scFv built as VH, the linker GGGGSGGGGSGGGGS, VL. Only the CDRs of the light chain vary.
VH: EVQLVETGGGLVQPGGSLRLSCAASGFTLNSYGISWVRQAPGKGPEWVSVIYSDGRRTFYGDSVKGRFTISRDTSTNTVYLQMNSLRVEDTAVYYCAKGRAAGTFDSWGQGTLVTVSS
VL: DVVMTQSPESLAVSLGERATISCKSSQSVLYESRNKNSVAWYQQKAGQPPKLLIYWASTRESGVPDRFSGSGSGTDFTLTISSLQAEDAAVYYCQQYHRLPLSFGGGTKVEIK

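The starting antibody came from a phage panning campaign against this peptide. Variants in AAYL50 differ from the parent at up to three CDR positions; double and triple changes were sampled at random. The assay is AlphaSeq: two haploid yeast populations carry antibody and antigen on their surface. Mating (16 h, 30 °C) was followed by selection of diploids and sequencing of their barcodes. Read counts were normalised to the haploid input and turned into Kd by a linear fit to BCL2-family pairs of known affinity, for each replicate. Mating was done three times.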

Substitutions are numbered in sequence along the VL above, starting at 1 (not Kabat).
Numbers give log10(Kd / nM), so 0 is 1 nM and 3 is 1 µM. Smaller is tighter.
"ND" means that the variant was in the library but no mating with the target was seen in that replicate; the authors take this as a sign of poor binding, and no number exists.
Three control strains display no target. For library AAYL50, 18% of the pairings with them gave a signal, with a median of 4.19 and one signal in twenty below 2.99, so weak values seen in few replicates may be background. The control count says in how many pairings with the empty strains this scFv gave a signal, with their mean in brackets.

changes,"replicates, log10 nM",signal with controls
R34E A57I T59C,ND ND ND,0/9
S33Y N35E L100Q,5.40 ND ND,1/9 (4.64)
Y31H S58F Y97K,1.64 1.59 1.64,0/9
E61Q L100D L102A,ND ND ND,0/9
Q27I Y31K R99V,ND ND 3.38,0/9
S28V A57H Q95N,ND ND ND,2/9 (4.40)
S25I A57W R60C,ND ND ND,1/9 (4.64)
S28M V29I Y97N,ND ND 4.83,1/9 (3.61)
K36I N37D V39M,1.51 1.49 1.75,0/9
A57M L102S,ND 4.25 4.86,5/9 (4.99)
K24Q L30F N37R,2.66 2.41 2.65,0/9
S25D A40F S58P,ND ND ND,0/9
S58M Q95N L102Q,4.85 ND ND,0/9
S28K Y31R V39H,ND 4.76 ND,1/9 (3.93)
A40N Q95T,ND ND 4.77,1/9 (4.27)
E32S K36F S62I,ND ND ND,0/9
V29W K36D T59W,1.44 1.32 1.51,0/9
S25I H98Y L102G,ND ND ND,0/9
Q27Y S58T,0.49 0.82 0.81,0/9
E61Q H98K L100Y,4.65 ND ND,0/9
V29G L30C,ND 3.65 ND,1/9 (3.59)
Y31T E32T A40L,ND ND ND,1/9 (4.54)
K36S W56T Q96D,0.59 0.78 0.54,2/9 (4.17)
Q27C P101A L102T,ND ND ND,2/9 (3.65)
L30Q H98A,2.12 2.21 2.16,6/9 (4.53)
L30T,-0.21 0.68 0.57,0/9
V29N E32P S33V,1.04 1.11 1.20,0/9
S28T Y31H Q95Y,ND ND ND,0/9
V39T E61I Y97T,5.44 3.72 4.04,3/9 (3.89)
H98N L102K S103R,ND ND 3.13,2/9 (3.87)
S25A Y31F T59L,0.44 0.68 0.65,1/9 (3.98)
S28C S38H R99W,ND ND ND,0/9
S38P R60W,ND ND 3.71,1/9 (2.95)
S26I N37E H98A,ND ND ND,0/9
K36F V39M Q95T,1.13 1.25 1.29,1/9 (3.41)
S26E R60Q S103K,ND 2.41 ND,0/9
L30F S33G L100I,1.14 1.45 1.19,1/9 (2.90)
R60K E61Q R99V,2.47 2.49 ND,0/9
S26H A57H L100I,ND ND ND,0/9
S62V Q95M R99C,3.32 3.25 3.90,3/9 (4.86)

The 2 strongest on average among those seen in every replicate, once more:

changes	replicates, log10 nM	signal with controls
L30T	-0.21 0.68 0.57	0/9
S25A Y31F T59L	0.44 0.68 0.65	1/9 (3.98)